Laboratory results as given in US20050250137A1, “Molecular targets of cancer and aging” (priority 2002, published 2005).

How the values were obtained:
MDAH087-1 cells [1] = conditions: for 659_at 1-5aza Ave Signal Log / ALDH1A3 36686_at 1-5aza Ave Signal Log / KIAA1750 32730_at 1-5aza Ave Signal Log: treated vs untreated immortal MDAH087-1
MDAH087-1 cells [2] = assay: Western blot protein expression after 5-aza-dC, MDAH087-1; type: cell-based, human
MDAH087-10 cells [3] = conditions: average fold change Q-RT-PCR
MDAH087-N cells [4] = conditions: average fold change Q-RT-PCR
MDAH087-1 cells [5] = conditions: average fold change Q-RT-PCR
MDAH087-N cells [6] = assay: Western blot protein expression after 5-aza-dC, MDAH087-N; type: cell-based, human
MDAH087-N cells [7] = tested on: MDAH087-N cells
MDAH087-10 cells [8] = assay: Western blot protein expression after 5-aza-dC, MDAH087-10; type: cell-based, human
[9] = MDAH087-1, average fold change microarray
[10] = Table 9 microarray, MDAH087-1, 5-aza-dC-treated vs untreated immortal cells
[11] = MDAH087-1 treated with 5-aza-dC
[12] = MDAH087-N treated with 5-aza-dC
[13] = MDAH087-N, average fold change microarray
[14] = Table 9 microarray, MDAH087-N, 5-aza-dC-treated vs untreated immortal cells
[15] = fold cell, treated vs untreated immortal MDAH087-N
[16] = log2 cell, treated vs untreated immortal MDAH087-N
[17] = MDAH087-10 treated with 5-aza-dC

Nc1ncn([C@H]2C[C@H](O)[C@@H](CO)O2)c(=O)n1 [5-aza-dC, 5-aza-2′-deoxycytidine]
CREG expression, IM vs 5-aza-dC, MA (MDAH087-1 cells [1]; [9]): 4.10 fold | KIAA1750 expression, IM vs 5-aza-dC, MA (MDAH087-1 cells [1]; [9]): 3.28 fold | SERPINB2 expression, IM vs 5-aza-dC, MA (MDAH087-1 cells [1]; [9]): 8.8 fold | STAT1α expression, IM vs 5-aza-dC, MA (MDAH087-1 cells [1]; [9]): 1.05 fold | TNFAIP2 expression, IM vs 5-aza-dC, MA (MDAH087-1 cells [1]; [9]): 3.08 fold | CREG expression, 5A (MDAH087-1 cells [1]; [10]): 4.1 fold | HTATIP2 expression, 5A (MDAH087-1 cells [1]; [10]): 2.0 fold | SERPINB2 expression, 5A (MDAH087-1 cells [1]; [10]): 8.8 fold | 659_at 1-5aza Ave Signal Log (MDAH087-1 cells [1]; fold cell): 4.69 | ALDH1A3 36686_at 1-5aza Ave Signal Log (MDAH087-1 cells [1]; fold cell): 2.29 | KIAA1750 32730_at 1-5aza Ave Signal Log (MDAH087-1 cells [1]; fold cell): 3.28 | 659_at 1-5aza Ave Signal Log (MDAH087-1 cells [1]; log2 cell): 2.29 | ALDH1A3 36686_at 1-5aza Ave Signal Log (MDAH087-1 cells [1]; log2 cell): 1.19 | KIAA1750 32730_at 1-5aza Ave Signal Log (MDAH087-1 cells [1]; log2 cell): 1.71 | p16^INK4a protein expression (MDAH087-1 cells [2]; [11]): but not expression of p16^INK4a | p21^CIP1/WAF1 protein expression (MDAH087-1 cells [2]; [11]): induced expression of p21^CIP1/WAF1 | IGFBP4 protein (MDAH087-1 cells [2]; after 5-aza-dC treatment, MDAH087-1): slight induction | STAT1α protein levels (MDAH087-1 cells [2]; untreated vs 5-aza-dC treated immortal MDAH087 cell lines (MDAH087-1)): nor was there found a difference in levels | ALDH1A3 expression, IM vs 5-aza-dC, QP (MDAH087-10 cells [3]): 9.71 fold | CREG expression, IM vs 5-aza-dC, QP (MDAH087-10 cells [3]): 4.49 fold | HSPA2 expression, IM vs 5-aza-dC, QP (MDAH087-10 cells [3]): 3.65 fold | IGFBP3 expression, IM vs 5-aza-dC, QP (MDAH087-10 cells [3]): −1.4 fold and −1.40 fold | IGFBP4 expression, IM vs 5-aza-dC, QP (MDAH087-10 cells [3]): 3.72 fold | IGFBPrP1 expression, IM vs 5-aza-dC, QP (MDAH087-10 cells [3]): 4.10 fold | KIAA1750 expression, IM vs 5-aza-dC, QP (MDAH087-10 cells [3]): 31.41 fold | OPTN expression, IM vs 5-aza-dC, QP (MDAH087-10 cells [3]): 431.43 fold | SERPINB2 expression, IM vs 5-aza-dC, QP (MDAH087-10 cells [3]): 58.24 fold | STAT1α expression, IM vs 5-aza-dC, QP (MDAH087-10 cells [3]): 3.23 fold | TNFAIP2 expression, IM vs 5-aza-dC, QP (MDAH087-10 cells [3]): 3.72 fold | ALDH1A3 expression, IM vs 5-aza-dC, QP (MDAH087-N cells [4]): 11.51 fold | CLTB expression, IM vs 5-aza-dC, QP (MDAH087-N cells [4]): 7.62 fold | HSPA2 expression, IM vs 5-aza-dC, QP (MDAH087-N cells [4]): 46.6 fold | IGFBP3 expression, IM vs 5-aza-dC, QP (MDAH087-N cells [4]): 2.82 fold | IGFBP4 expression, IM vs 5-aza-dC, QP (MDAH087-N cells [4]): 4.82 fold | IGFBPrP1 expression, IM vs 5-aza-dC, QP (MDAH087-N cells [4]): 5.34 fold | KIAA1750 expression, IM vs 5-aza-dC, QP (MDAH087-N cells [4]): 28.43 fold | OPTN expression, IM vs 5-aza-dC, QP (MDAH087-N cells [4]): 6.36 fold | SERPINB2 expression, IM vs 5-aza-dC, QP (MDAH087-N cells [4]): 66.72 fold | STAT1α expression, IM vs 5-aza-dC, QP (MDAH087-N cells [4]): 9.05 fold | TNFAIP2 expression, IM vs 5-aza-dC, QP (MDAH087-N cells [4]): 39.56 fold | ALDH1A3 expression, IM vs 5-aza-dC, QP (MDAH087-1 cells [5]): 69.28 fold | CLTB expression, IM vs 5-aza-dC, QP (MDAH087-1 cells [5]): 3.08 fold | CREG expression, IM vs 5-aza-dC, QP (MDAH087-1 cells [5]): 4.93 fold | HSPA2 expression, IM vs 5-aza-dC, QP (MDAH087-1 cells [5]): 24.43 fold | IGFBP3 expression, IM vs 5-aza-dC, QP (MDAH087-1 cells [5]): −2.61 fold | IGFBP4 expression, IM vs 5-aza-dC, QP (MDAH087-1 cells [5]): −0.03 fold | KIAA1750 expression, IM vs 5-aza-dC, QP (MDAH087-1 cells [5]): 5.23 fold | OPTN expression, IM vs 5-aza-dC, QP (MDAH087-1 cells [5]): 30.54 fold | SERPINB2 expression, IM vs 5-aza-dC, QP (MDAH087-1 cells [5]): 22.63 fold | STAT1α expression, IM vs 5-aza-dC, QP (MDAH087-1 cells [5]): 1.56 fold | TNFAIP2 expression, IM vs 5-aza-dC, QP (MDAH087-1 cells [5]): 7.28 fold | p16^INK4a protein expression (MDAH087-N cells [6]; [12]): induced protein expression of p16^INK4a | p21^CIP1/WAF1 protein expression (MDAH087-N cells [6]; [12]): but not of p21^CIP1/WAF1 | IGFBP4 protein (MDAH087-N cells [6]; after 5-aza-dC treatment, MDAH087-N): slight induction | STAT1α protein levels (MDAH087-N cells [6]; untreated vs 5-aza-dC treated immortal MDAH087 cell lines (MDAH087-N)): nor was there found a difference in levels | ALDH1A3 expression, IM vs 5-aza-dC, MA (MDAH087-N cells [7]; [13]): 3.2 fold | CLTB expression, IM vs 5-aza-dC, MA (MDAH087-N cells [7]; [13]): 2.4 fold | CREG expression, IM vs 5-aza-dC, MA (MDAH087-N cells [7]; [13]): 1.55 fold | IGFBP4 expression, IM vs 5-aza-dC, MA (MDAH087-N cells [7]; [13]): 1.84 fold | IGFBPrP1 expression, IM vs 5-aza-dC, MA (MDAH087-N cells [7]; [13]): 3.02 fold | SERPINB2 expression, IM vs 5-aza-dC, MA (MDAH087-N cells [7]; [13]): 10.7 fold | STAT1α expression, IM vs 5-aza-dC, MA (MDAH087-N cells [7]; [13]): 1.99 fold | TNFAIP2 expression, IM vs 5-aza-dC, MA (MDAH087-N cells [7]; [13]): 5.41 fold | ALDH1A3 expression, 5A (MDAH087-N cells [7]; [14]): 3.2 fold | CLTB expression, 5A (MDAH087-N cells [7]; [14]): 2.4 fold | IGFBPrP1 expression, 5A (MDAH087-N cells [7]; [14]): 3.0 fold | SERPINB2 expression, 5A (MDAH087-N cells [7]; [14]): 10.7 fold | TNFAIP2 expression, 5A (MDAH087-N cells [7]; [14]): 5.4 fold | 659_at N-5aza Ave Signal Log (MDAH087-N cells [7]; [15]): 7.98 | ALDH1A3 36686_at N-5aza Ave Signal Log (MDAH087-N cells [7]; [15]): 3.24 | KIAA1750 32730_at N-5aza Ave Signal Log (MDAH087-N cells [7]; [15]): 5.10 | 659_at N-5aza Ave Signal Log (MDAH087-N cells [7]; [16]): 3.00 | KIAA1750 32730_at N-5aza Ave Signal Log (MDAH087-N cells [7]; [16]): 2.35 | p16^INK4a protein expression (MDAH087-10 cells [8]; [17]): but not expression of p16^INK4a | p21^CIP1/WAF1 protein expression (MDAH087-10 cells [8]; [17]): induced expression of p21^CIP1/WAF1 | IGFBP4 protein (MDAH087-10 cells [8]; after 5-aza-dC treatment, MDAH087-10): no induction | STAT1α protein levels (MDAH087-10 cells [8]; untreated vs 5-aza-dC treated immortal MDAH087 cell lines (MDAH087-10)): nor was there found a difference in levels

“And” between values parts separate entries of the source, which are not always exact repeats. Equal entries are not always repeated. Where two headings read alike, the source gives them in different places.
